# Literature values as cited in publication PMC6943670, “Investigating the Binding Mode of Reversible LSD1 Inhibitors Derived from Stilbene Derivatives by 3D-QSAR, Molecular Docking, and Molecular Dynamics Simulation” (Molecules, 2019).
# Biological target: LSD1 (Homo sapiens, UniProt O60341)
# Conditions: cited from earlier work
compound,measurement,setting,value
NNCCc1ccccc1 [phenelzine],inhibitory effect on LSD1,MAO inhibitors bonding covalently with FAD,no significant inhibitory effect
same,selectivity,MAO inhibitors,poor selectivity
